Measured values published in patent publication EP4847503A1, “TETRAZOLE COMPOUND, PHARMACEUTICAL COMPOSITION THEREOF AND USE THEREOF” (dated 2026).

Protein sequences, listed by entry. Tags and fused reporters are not part of them.
UniProt P50052, whole entry: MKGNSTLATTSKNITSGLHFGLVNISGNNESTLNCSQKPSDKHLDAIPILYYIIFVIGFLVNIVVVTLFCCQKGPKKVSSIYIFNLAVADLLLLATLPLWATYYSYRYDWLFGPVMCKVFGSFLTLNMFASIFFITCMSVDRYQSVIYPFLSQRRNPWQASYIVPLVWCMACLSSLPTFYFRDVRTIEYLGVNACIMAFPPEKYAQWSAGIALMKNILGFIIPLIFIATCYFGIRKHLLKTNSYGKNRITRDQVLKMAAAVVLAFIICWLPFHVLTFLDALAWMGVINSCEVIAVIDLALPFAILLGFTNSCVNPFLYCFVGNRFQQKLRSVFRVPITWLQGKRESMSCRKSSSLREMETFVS

Tests used:
AT2 receptor = AT2 receptor (Homo sapiens, UniProt P50052); assay: AT2R Binding assay (Tag-lite HTRF, affinity for AT2 receptor); conditions: read-out: AT2R IC50; Tag-lite Angiotensin AT2 labeled Cells, 25 °C, 1 hour
Procedure: Test Example 1 Determination of the affinity of the test compounds for AT2 receptor by AT2R Binding assay
1. Reagent preparation • 1.1 Cell line: Tag-lite Angiotensin AT2 labeled Cells; • 1.2 Assay buffer: 1X TLB (5 mL 5X TLB + 20 mL H2O); 2. Activity assay of the test compounds • 2.1 1X TLB assay buffer, 4X working solutions of the test compounds, and 4X Tag-lite angiotensin receptor red agonist (Cisbio, L0007RED) were prepared; • 2.2 One vial of labeled-AT2R cells was thawed in a water bath at 37 °C until the ice completely melted (1-2 min). The thawed cells were quickly transferred to 5 mL of 1X TLB, mixed gently, and centrifuged at 200 g for 5 min; • 2.3 The supernatant was discarded, and the cells were resuspended and mixed with 1 mL of 1X TLB. Then, 1.7 mL of 1X TLB was added and mixed, and the mixture was kept at room temperature for later use; • 2.4 10 µL of cells were added to a 384-well plate (Greiner, 784075) and centrifuged at 200 g at RT for 3 s; 5 µL of the 4X compound was added to the 384-well plate; 5 µL of the 4X Tag-lite angiotensin receptor red agonist was added to all test wells; • 2.5 The reaction plate was left to stand at room temperature of 25 °C for 1 hour, and then centrifuged at 200 g, RT for 60 s. Data was collected using an Envision HTRF detector. 3. Data analysis • 3.1 Calculation of % inhibition: [formula] • 3.2 Calculation of compound IC50 using GraphPad non-linear fitting formula: Y = Bottom + (Top-Bottom)/(1+10^(∧)((LogIC50-X)*HillSlope)) [formula] • X: log value of compound concentration; Y: % inhibition 4. Experimental results

[1] = Pharmacokinetic behavior in mice; conditions: ICR mice; for F(%): intragastric administration 5 mg/kg vs intravenous 1 mg/kg
Procedure: Test Example 3 Study on the pharmacokinetic behavior of the compounds of the present invention in mice
(§1) Healthy ICR mice (SPF grade, source: Beijing Vital River Laboratory Animal Technology Co., Ltd.), 3 animals, male, weighing 18-25 g, were intravenously injected with 1 mg/kg of the compound at a dosing volume of 5 mL/kg, formulated with 5% DMSO + 10% Solutol + 85% Saline (w/v). Animals were fasted prior to the test.
as §1, with “were intragastrically administered” for “were intravenously injected”, “with 5” for “with 1”, “of 10” for “of 5”
(§2) Blood samples (approx. 0.05 mL each) were collected via the cheek at 5 min, 15 min, 30 min, 1 h, 2 h, 4 h, 6 h, 8 h, and 24 h after intravenous administration, and at 5 min, 15 min, 30 min, 1 h, 2 h, 4 h, 6 h, 8 h, and 24 h after intragastric administration, respectively, using sodium heparin as an anticoagulant. After collection, the blood samples were placed on ice, and the plasma was separated by centrifugation within 1 hour (centrifugation conditions: 6000 g, 3 minutes, 2-8 °C). The concentration of the compound in plasma was determined by liquid chromatography-tandem mass spectrometry. Plasma samples were stored in a -80 °C freezer before analysis. Pharmacokinetic parameters were calculated using Phoenix WinNonlin 8.2.0 based on plasma concentration data at different time points.

[2] = Pharmacokinetic behavior in rats; conditions: SD rats
Procedure: Test Example 4 Study on the pharmacokinetic behavior of the compounds of the present invention in rats
(§3) Healthy SD rats (SPF grade, source: Beijing Vital River Laboratory Animal Technology Co., Ltd.), 3 animals, male, weighing 180-250 g, were intravenously injected with 1 mg/kg of the compound at a dosing volume of 2 mL/kg. The compound was formulated with 5% DMSO + 10% Solutol + 85% Saline (w/v), and the animals were not fasted prior to the test.
as §3, with “were intragastrically administered” for “were intravenously injected”, “with 5” for “with 1”, “of 10” for “of 2”
as §2, with “0.25” for “0.05”, “vein” for “cheek”

[3] = intragastric administration 5 mg/kg

Work on CC(C)Cc1cc(OC2CC(F)(F)C2)c(-c2nn[nH]n2)c(N2CCN(Cc3cccnn3)[C@@H](C)C2)c1 yielded an IC50 (AT2 receptor) of 4.11 nM.
COC1CC1Nc1cc(CC(C)C)cc(N2CCN(Cc3cccnn3)[C@@H](C)C2)c1-c1nn[nH]n1 (some centres unmarked) showed an IC50 (AT2 receptor) of 7.18 nM.
For Cc1cnn(-c2cc(CC(C)C)cc(N3CCN(Cc4cccnn4)[C@@H](C)C3)c2-c2nn[nH]n2)c1, the IC50 (AT2 receptor) was 25.5 nM.
Compound CC(C)Cc1cc(NC2CC2)c(-c2nn[nH]n2)c(N2CCN(Cc3cccnn3)[C@@H](C)C2)c1 has an IC50 (AT2 receptor) of 6.6 nM, an AUClast [1, 3] of 26737 ng·h/mL and a Cmax [1, 3] of 11236 ng/mL. For the same compound, the T1/2 [1, 3] was 2.41 h, the F(%) [1] was 96% and the AUClast ([1]; intravenous injection 1 mg/kg) was 5551 ng·h/mL. It also gave a CL ([1]; intravenous injection 1 mg/kg) of 3.03 mL/min/kg, a Cmax ([1]; intravenous injection 1 mg/kg) of 4599 ng/mL and a Vss ([1]; intravenous injection 1 mg/kg) of 0.372 L/kg. It also gave an AUClast [2, 3] of 72093 ng·h/mL, a Cmax [2, 3] of 7089 ng/mL and a T1/2 [2, 3] of 4.08 h. For the same compound, the “F(%)” value ([2]; intragastric administration 5 mg/kg vs intravenous 1 mg/kg) was 100%, the AUClast ([2]; intravenous injection 1 mg/kg) was 14313 ng·h/mL and the CL ([2]; intravenous injection 1 mg/kg) was 1.17 mL/min/kg. The Cmax ([2]; intravenous injection 1 mg/kg) was 5510 ng/mL and the Vss ([2]; intravenous injection 1 mg/kg) was 0.243 L/kg.
Compound CCn1cc(Nc2cc(CC(C)C)cc(N3CCN(Cc4cccnn4)[C@@H](C)C3)c2-c2nn[nH]n2)cn1 has an IC50 (AT2 receptor) of 2.96 nM.
Compound CC(C)Cc1cc(N2CCN(Cc3cccnn3)[C@@H](C)C2)c(-c2nn[nH]n2)c(N2CC(F)(F)C2)c1 has an IC50 (AT2 receptor) of 2.36 nM.
In the case of CC(C)Cc1cc(NC2CCC2)c(-c2nn[nH]n2)c(N2CCN(Cc3cccnn3)[C@@H](C)C2)c1, the IC50 (AT2 receptor) is reported as 2.58 nM.
For CC(C)Cc1cc(NC(=O)C2CC(F)(F)C2)c(-c2nn[nH]n2)c(N2CCN(Cc3cccnn3)[C@@H](C)C2)c1, the IC50 (AT2 receptor) was 3.31 nM.
Compound CC(C)Cc1cc(NC23CC(C2)C3)c(-c2nn[nH]n2)c(N2CCN(Cc3cccnn3)[C@@H](C)C2)c1 has an IC50 (AT2 receptor) of 8.47 nM.
With CO[C@@H]1CCC[C@H]1Nc1cc(CC(C)C)cc(N2CCN(Cc3cccnn3)[C@@H](C)C2)c1-c1nn[nH]n1 the IC50 (AT2 receptor) was 12.8 nM.
Compound CC(C)Cc1cc(NC2CCC(F)(F)CC2)c(-c2nn[nH]n2)c(N2CCN(Cc3cccnn3)[C@@H](C)C2)c1 has an IC50 (AT2 receptor) of 3.35 nM.
For CC(C)Cc1cc(NC(=O)C2CC2)c(-c2nn[nH]n2)c(N2CCN(Cc3cccnn3)[C@@H](C)C2)c1, the IC50 (AT2 receptor) was 11.9 nM.
For C[C@H]1CN(c2cc(CC3CC3(F)F)cc(N3CCC(F)(F)C3)c2-c2nn[nH]n2)CCN1Cc1cccnn1 (some centres unmarked), the IC50 (AT2 receptor) was 7 nM.
In the case of CC(C)Cc1cc(Oc2cnn(C)c2)c(-c2nn[nH]n2)c(N2CCN(Cc3cccnn3)[C@@H](C)C2)c1, the IC50 (AT2 receptor) is reported as 7.41 nM.
CC(C)Cc1cc(Nc2cnn(C(C)C)c2)c(-c2nn[nH]n2)c(N2CCN(Cc3cccnn3)[C@@H](C)C2)c1 gave an IC50 (AT2 receptor) of 1.9 nM.
CC(C)Cc1cc(C(F)F)c(-c2nn[nH]n2)c(N2CCN(Cc3cccnn3)[C@@H](C)C2)c1 gave an IC50 (AT2 receptor) of 3.8 nM.
In the case of CC(C)Cc1cc(C2CC(F)(F)C2)c(-c2nn[nH]n2)c(N2CCN(Cc3cccnn3)[C@@H](C)C2)c1, the IC50 (AT2 receptor) is reported as 4.77 nM.
With C[C@H]1CN(c2cc(CC3CC3(F)F)cc(NC3CC(F)(F)C3)c2-c2nn[nH]n2)CCN1Cc1cccnn1 (some centres unmarked) the IC50 (AT2 receptor) was 3.45 nM, the AUClast [1, 3] was 28784 ng·h/mL and the Cmax [1, 3] was 15358 ng/mL. It also gave a T1/2 [1, 3] of 1.6 h, a F(%) [1] of 73.5% and an AUClast ([1]; intravenous injection 1 mg/kg) of 7828 ng·h/mL. For the same compound, the CL ([1]; intravenous injection 1 mg/kg) was 2.02 mL/min/kg, the Cmax ([1]; intravenous injection 1 mg/kg) was 6257 ng/mL and the Vss ([1]; intravenous injection 1 mg/kg) was 0.306 L/kg.
With CC(C)Cc1cc(NC2CCCC2)c(-c2nn[nH]n2)c(N2CCN(Cc3cccnn3)[C@@H](C)C2)c1 the IC50 (AT2 receptor) was 3.8 nM.
In the case of Cc1cnn(Cc2cc(CC(C)C)cc(N3CCN(Cc4cccnn4)[C@@H](C)C3)c2-c2nn[nH]n2)c1, the IC50 (AT2 receptor) is reported as 1.78 nM.
For COC1CCCCC1Nc1cc(CC(C)C)cc(N2CCN(Cc3cccnn3)[C@@H](C)C2)c1-c1nn[nH]n1 (some centres unmarked), the IC50 (AT2 receptor) was 17.7 nM.
Compound CC(C)Cc1cc(N[C@@H]2CCC(F)(F)C2)c(-c2nn[nH]n2)c(N2CCN(Cc3cccnn3)[C@@H](C)C2)c1 has an IC50 (AT2 receptor) of 3.01 nM.
CC(C)Cc1cc(NC2(C)CCC2)c(-c2nn[nH]n2)c(N2CCN(Cc3cccnn3)[C@@H](C)C2)c1 gave an IC50 (AT2 receptor) of 11 nM.
For CC(C)Cc1cc(Cn2cc(C3CC3)cn2)c(-c2nn[nH]n2)c(N2CCN(Cc3cccnn3)[C@@H](C)C2)c1, the IC50 (AT2 receptor) was 0.891 nM.
In the case of CC(C)Cc1cc(N)c(-c2nn[nH]n2)c(N2CCN(Cc3cccnn3)[C@@H](C)C2)c1, the IC50 (AT2 receptor) is reported as 6.53 nM.
Compound CC(C)Cc1cc(N2CCN(Cc3cccnn3)[C@@H](C)C2)c(-c2nn[nH]n2)c(N2CCC3(CC3)C2)c1 has an IC50 (AT2 receptor) of 5.08 nM.
For CC(C)Cc1cc(O[C@H]2CCOC2)c(-c2nn[nH]n2)c(N2CCN(Cc3cccnn3)[C@@H](C)C2)c1, the IC50 (AT2 receptor) was 5.05 nM.
For CC(C)Cc1cc(N2CC3C(C2)C3(F)F)c(-c2nn[nH]n2)c(N2CCN(Cc3cccnn3)[C@@H](C)C2)c1 (some centres unmarked), the IC50 (AT2 receptor) was 4.11 nM.
Compound COCCNc1cc(CC(C)C)cc(N2CCN(Cc3cccnn3)[C@@H](C)C2)c1-c1nn[nH]n1 has an IC50 (AT2 receptor) of 18.2 nM.
Compound CC(C)Cc1cc(NCC(F)F)c(-c2nn[nH]n2)c(N2CCN(Cc3cccnn3)[C@@H](C)C2)c1 has an IC50 (AT2 receptor) of 2.96 nM.
With CC(C)Cc1cc(N[C@H]2CCC(F)(F)C2)c(-c2nn[nH]n2)c(N2CCN(Cc3cccnn3)[C@@H](C)C2)c1 the IC50 (AT2 receptor) was 3.31 nM.
CC(C)Cc1cc(N2CCN(Cc3cccnn3)[C@@H](C)C2)c(-c2nn[nH]n2)c(N2CC3(C2)CC(F)(F)C3)c1 showed an IC50 (AT2 receptor) of 6.3 nM.
